Experimental data published in US11672774B2, “Methods of treating squamous cell carcinomas with farnesyltransferase inhibitors” (Kura Oncology, Inc., priority 2019, dated 2023).

Key:
Assay type in all cases: in vivo, BALB/c nude or Nu/nu mice
HNSCC PDX Model HN2576 = experiment: tumor growth in HNSCC PDX model HN2576; details: PDX HN2576, wild type H-Ras, H-Ras 3.0x median, H/K+N 4.6; tipifarnib 80 mg/kg PO BID, cisplatin 3 mg/kg IP QW, palbociclib 35 mg/kg PO QD, cetuximab 1 mg/mouse IP QW; vs vehicle
Protocol: (§1) Female BALB/c nude or Nu/nu mice (6-8 weeks) were inoculated subcutaneously on the right flank with primary human tumor model fragment (2-3 mm in diameter) for tumor development. When average tumor size reaches about 250-350 mm^3, mice were randomly grouped into dosing groups. Animals were dosed with tipifarnib vehicle (20% w/v Hydroxypropyl-β-cyclodextrin) or tipifarnib at a dose of 80 mg/kg BID PO for 3-4 weeks and tumor dimensions were measured twice per week.
(§2) The ability of tipifarnib to inhibit tumor growth was determined using selected patient-derived xenograft (PDX) models of HNSCC. The selected models expressed different levels of H-Ras or had different high ratios of H-Ras expression to the combined expression of K-Ras and N-Ras (“H/K+N ratio”). The expression levels of H-Ras, K-Ras and N-Ras in these PDX models were determined by RNAseq.
(§3) After tumor development, mice were administered either vehicle, tipifarnib (80 mg/kg PO BID), a second active agent, or a combination of tipifarnib and a second active agent.
(§4) After tumor development, mice were administered either vehicle, tipifarnib (at a reduced dosing of 60 mg/kg PO BID), a second active agent, or a combination of tipifarnib and a second active agent.

HNSCC PDX Model HN2594 = experiment: tumor growth in HNSCC PDX model HN2594; details: PDX HN2594, wild type H-Ras, H-Ras 2.8x median, H/K+N 3.6; tipifarnib 80 mg/kg PO BID, cisplatin 3 mg/kg IP QW, palbociclib 35 mg/kg PO QD, cetuximab 1 mg/mouse IP QW; vs vehicle
Protocol: as §1, §2
(§5) After tumor development, mice were administered either vehicle, tipifarnib, a second active agent, or a combination of tipifarnib and a second active agent.
as §3, §4

HNSCC PDX Model HN3679 = experiment: tumor growth in HNSCC PDX model HN3679; details: PDX HN3679, H-Ras 2.6x median, H/K+N 3.6; tipifarnib 80 mg/kg PO BID, palbociclib 35 mg/kg PO QD, cetuximab 1 mg/mouse IP QW; vs vehicle
Protocol: as §1
The ability of tipifarnib to inhibit tumor growth was determined using selected patient-derived xenograft (PDX) models of HNSCC. The selected models expressed different levels of H-Ras or had different high ratios of H-Ras expression to the combined expression of K-Ras and N-Ras (“H/K+N ratio”). The expression levels of H-Ras, K-Ras and N-Ras in these PDX models were determined by RNAseq. All models in Table 1 express wild type H-Ras.
As described in Example I, mice were inoculated subcutaneously on the flank with PDX HNSCC models HN3792, HN0586, HN2576, HN3067, HN2594, HN3461, HN3776, HN3474, and HN3679, with each of the nine models having high H-Ras expression level and/or high H/N+K Ratios, as detailed in Table 1). After tumor development, mice were administered either vehicle, tipifarnib (80 mg/kg PO BID), a second active agent, or a combination of tipifarnib and a second active agent.

HNSCC PDX Model HN3411 = experiment: tumor growth in HNSCC PDX model HN3411; details: PDX HN3411, H-Ras 4.1x median, H/K+N 2.7; Example III: tipifarnib, cetuximab, cisplatin or palbociclib alone or combined; vs vehicle
Protocol: as §1, §5
(§6) After tumor development, mice were administered either vehicle, tipifarnib (at a reduced dosing of 60 mg/kg PO BID), a second active agent, or a combination of tipifarnib and a second active agent. The second agent was PI3K-α inhibitor BYL719 (50 mg/kg PO QD).

HNSCC PDX Model HN3067 = experiment: tumor growth in HNSCC PDX model HN3067; details: PDX HN3067, H-Ras 2.7x median, H/K+N 2.8; tipifarnib 80 mg/kg PO BID, cisplatin 3 mg/kg IP QW, palbociclib 35 mg/kg PO QD, cetuximab 1 mg/mouse IP QW; vs vehicle
Protocol: as §1, §3, §6

With cetuximab the tumor growth (HNSCC PDX Model HN2576) was “high activity”, the tumor growth (HNSCC PDX Model HN2594) was “partial response (inhibited tumor growth); also recorded: had activity” and the tumor growth (HNSCC PDX Model HN3679) was “high activity”. For the same substance, the tumor growth (HNSCC PDX Model HN3411) was “partially inhibited tumor growth” and the tumor growth (HNSCC PDX Model HN3067) was “high activity”.

“Also recorded” adds a separate entry of the source.
